Laboratory results from ChEMBL document CHEMBL3877298, “Discovery of benzimidazole derivatives as modulators of mitochondrial function: A potential treatment for Alzheimer's disease” (Eur J Med Chem, 2017).

The chains behind the UniProt entries cited, without tags or fusion partners.
UniProt P30536, whole entry: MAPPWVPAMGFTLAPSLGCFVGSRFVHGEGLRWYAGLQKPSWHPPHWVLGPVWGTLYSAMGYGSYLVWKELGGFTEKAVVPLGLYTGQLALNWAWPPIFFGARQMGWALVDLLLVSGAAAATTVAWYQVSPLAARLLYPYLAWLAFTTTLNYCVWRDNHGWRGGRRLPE

Experiments:
Translocator protein [1] = molecular target: T1, Translocator protein (Homo sapiens, UniProt P30536); assay: Binding affinity to recombinant human TSPO by SPR assay
Procedure, shortened: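 Biacore T200 at 25 °C with recombinant human TSPO (18 kDa) amine-coupled to a CM5 chip in 10 mM sodium acetate pH 4.5, giving 4000–6000 RU. Compounds from 10 mM DMSO stocks were diluted in PBS-P; running buffer held 1.0% DMSO. Five concentrations, 0.01–5 µM, were injected at 50 µL/min (120 s contact, 300 s dissociation), with blanks and regeneration. KD reported.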

Translocator protein [2] = molecular target: T1, Translocator protein; assay: Inhibition of TSPO (unknown origin)
Procedure, shortened: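 Membranes from male Sprague-Dawley rat cerebral cortex were homogenised and washed in Tris-HCl (30 mM, pH 7.4), then washed in Tris-citrate (50 mM, pH 7.1). […] Bound and free ligand were separated by filtration through GF/C filters and counted by scintillation. […] Percent displacement gave the IC50, and Ki was calculated as IC50/(1+[L]/Kd).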

Kd (Translocator protein [1]): 11.1 nM | IC50 (Translocator protein [2]): 1.1 nM
Structure (SMILES): CCC(C)N(C)C(=O)c1cc2ccccc2c(-c2ccccc2Cl)n1 (configuration not stated) [PK-11195]
